The target in the experiment is hMCH-1R (Homo sapiens (Human), UniProt Q99705). The experiment can be described thus: MCH-1 receptor binding test (125I-MCH binding to hMCH-1R transfected cell membranes). The note with it: competition with 100 pM 125I-MCH, membranes of CHO/Galpha16 cells stably transfected with hMCH-1R.

Chains of the proteins cited; added tags and fusions are not shown.
UniProt Q99705, whole entry: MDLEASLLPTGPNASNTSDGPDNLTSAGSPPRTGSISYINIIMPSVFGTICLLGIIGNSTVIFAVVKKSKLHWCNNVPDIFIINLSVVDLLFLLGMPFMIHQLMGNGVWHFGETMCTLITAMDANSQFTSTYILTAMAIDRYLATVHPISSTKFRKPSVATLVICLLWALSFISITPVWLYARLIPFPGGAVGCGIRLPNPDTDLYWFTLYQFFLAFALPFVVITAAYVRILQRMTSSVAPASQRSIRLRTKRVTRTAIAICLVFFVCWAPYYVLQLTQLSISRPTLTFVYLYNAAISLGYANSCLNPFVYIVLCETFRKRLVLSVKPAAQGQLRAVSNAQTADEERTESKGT

`Cc1cc(CN2C[C@@H](C)O[C@@H](C)C2)ccc1C(=O)Cn1ncc(OCc2ccccc2)cc1=O`: the IC50 is 35 nM.
To `Cc1cc(CN2CCCC2C)ccc1C(=O)Cn1ccc(OCc2ccc(Br)cn2)cc1=O` (centres unmarked) belongs 14 nM.

One may read the IC50 as the concentration at which inhibition is half-maximal. A lower IC50 goes with higher potency.

The values above are taken from patent US8933079B2, “Pyridone and pyridazinone derivatives as anti-obesity agents” (Boehringer Ingelheim International GmbH, priority 2012, dated 2015).
